In patent US20100291010A1, “NOVEL ESTERS AND COMPOSITIONS AND USES THEREOF” (INNOSPEC LIMITED, priority 2007, published 2010):

Assay: Sunscreen solubilities in esters (25° C.)
Excerpt: These two sunscreens are difficult to dissolve and keep in solution for use in sunscreen formulations for optimal SPF (Sun-Protection Factors). Higher solvency for a sunscreen ingredient is described as it allows higher concentrations of the sunscreen active ingredient in a formulation. […] The liquid organic sunscreens that are commonly used as octylsalicylate (OS) and octyl-methoxycinnamate (OMC).

butyl-methoxy dibenzoyl methane [Parsol 1789]
Solubility in Additive A (%) (solvent Additive A): 23%
Solubility in Finester LP (%) (solvent Finester LP): 6%
Solubility in Finsolv TN (%) (solvent Finsolv TN): 13%
